The values below come from patent US7745390B2, “Antimicrobial peptides” (priority 2005, dated 2010).

Molecules are shown by their SMILES. pIC50: −log10 of the molar value. Converted amounts (≈) assume the structure as drawn.

Series [1] has as its system E. coli DH5a. The class given is cell-based. To be noted: for E. coli DH5a MIC / pIC50: pH 7.2. The method, then: (§1) The experiments described above characterizing the activity of granulysin peptides G1-G18 relied on counting bacterial colonies on plates. This assay is quite labor intensive and would not allow evaluation of many different compounds on a number of different microbes. Therefore, we optimized an assay in which the entire procedure could be completed in a single microtiter well. Briefly, peptides are diluted in 10 mM phosphate buffer, pH 7.2 supplemented with 0.03% LB (J. Sambrook, D. W. Russell, Molecular Cloning: A Laboratory Manual (Cold Spring Harbor Laboratory Press, New York, ed. 3, 2001) pg. A2.2, Retrieved from http://openwetware.org/wiki/LB) and 25 μl is added to microtiter wells. Bacteria (25 μl) are added (˜5×10^6 colony forming units/ml) in the same buffer. After a 3-hour incubation at 37° C., 150 μl of LB is added and the plates are incubated overnight. The OD at 600 nm is read on an ELISA plate reader. The minimum inhibitory concentration (MIC) is the lowest concentration allowing no bacterial growth. The IC50 is the concentration of peptide that results in 50% growth compared to the medium.
(§2) We now describe additional peptides and their activity. The peptides have been designed, synthesized, and have been tested for lysis of E. coli and S. typhimurium (gram negative bacteria), B. cereus (gram positive bacterium). Results are shown in Table 2 along with the amino acid sequence of the peptide. Changes from the naturally occurring sequence are underlined. In general, the desired result is lysis of bacteria at low concentration (<1 μM).
(§3) In Table 2, Columns 2-7 are the MIC and IC50 (concentration required for 50% inhibition of growth) for each organism (E. coli, Salmonella, and B. cereus). The MIC (minimum inhibitory concentration) was determined as described above, in a multiwell plate assay. […] L-isomer amino acids are designated by capital letters while D-isomer amino acids are designated by lower case letters.

The test system of series [2] is B. cereus. The class given is cell-based. To be noted: pH 7.2. As for the experimental part: as §1, §2, §3
Series [3] concerns U937 cells. The series is described as follows: Lysis of tumor cells: apoptosis of U937 by 3H-thymidine. The following applies: U937, 50 μM peptide, 4-6 hours.
The test system of series [4] is E. coli. The experiment in a line: Microtiter plate MIC assay in media with different concentrations of NaCl. The class given is cell-based. To be noted: NaCl increased from 10 mM to 150 mM. As for the experimental part:
as §1
The activity of many cationic antimicrobial peptides is abrogated in isotonic media, most likely because the electrostatic interaction of the positively charged peptides with the negatively charged membrane is disrupted by salt. […]

Series [5] concerns S. typhimurium. The following applies: Wang et al.; cited from earlier work.
The subject of series [6] is Salmonella. The class given is cell-based, S. typhimurium. To be noted: pH 7.2. The method, then:
as §1, §2, §3

In series [7] the test system is bacteria. The experiment in a line: Activity in DMEM and RPMI media (lysis of bacteria). The class given is cell-based. The method, then: The CFU assay is the “gold standard” for evaluating antibiotics. Briefly, bacteria are grown overnight in rich medium, such as LB, and then diluted and grown in log phase for 2-4 hours. Cultures are set up as above, with the initial culture media being 10 mM phosphate buffer/0.03% LB; DMEM or RPMI; or DMEM or RPMI plus 10% serum (fetal calf, human, or mouse). After various periods of time, but generally 3 hours or less, aliquots are removed, diluted in LB at various dilutions, and plated on LB agar plates. Plates are incubated overnight at 37° C. and counted on an automatic colony counter.
In the column “Active in DMEM”, a blank means no activity. MAP stands for multiple antigenic peptide, where a number of identical peptide chains are synthesized and joined to a common core (like a dendrimer).
The peptides listed in Table 2 were tested in DMEM and RPMI, media that approximate blood and tissue conditions in vivo and those that were active under these conditions are listed in the last column (active in DMEM). […]
The hydrophobic moment is a measure of amphipathicity and indicates how well the hydrophobic residues fall on one side of the helix while the hydrophilic residues fall on the opposite side is shown in column 7. This was determined using the Membrane Explorer Program (http://blanco.biomol.uci.edu/mpex/). […]

Series [8] is described as follows: Degree of helicity by circular dichroism. The class given is physicochemical. The following applies: Table 4. As for the experimental part:
For designing analogues of the present sequences, as taught herein, the Table also presents data on the degree of helicity of the active peptides, as measured by circular dichroism. It should be noted that a number of the active peptides listed in the figure are not alpha helices at all. At least one peptide tested was considered to be a random coil, with no detectible secondary structure evident in the circular dichroism measurement.
The MIC values are for E. coli in 10 mM phosphate buffer. The peptides were derived by the inventors from granulysin helix 3. […] It contains an equal number of hydrophobic and positively charged amino acids, can adapt an αhelical structure, and is very amphipathic. In contrast, the remaining 3 peptides all retain activity in DMEM even in the presence of serum. These peptides contain more positive residues than hydrophobic residues. G12.21 contains 2 proline residues, G11.46 is based on a modification of the helix three sequence (RRVSRRFMRR) (SEQ ID NO: 91) with a 5 arginine extension at the NH2 terminus, and G14.15 includes loop 2/RRVSRRFMRR (SEQ ID NO: 91).

Series [9] relates to Jurkat cells. The class given is cell-based. The text has this: To further investigate the contribution of secondary structure to function, additional Peptides G16-G19 (beyond peptides G1-G15, previously reported) were synthesized. Peptide G16 is identical to G13, except that a D-alanine residue was substituted for the L-alanine at position 30. […] In peptide G17, the two arginine residues in loop two are substituted with glutamine.
As shown above, substitution of the two arginine residues in Loop 2 with glutamine abrogates activity against Jurkat cells but only slightly affects lysis of S. typhimurium. Peptide G18 is identical to G14 except that a D-arginine was substituted at position 46. […] Peptide G19 incorporates both the R→Q substitutions as well as the D-arginine at position 46.

`CSCC[C@H](NC(=O)[C@H](Cc1ccccc1)NC(=O)[C@H](CC(N)=O)NC(=O)[C@H](CCCNC(=N)N)NC(=O)[C@@H]1CSSC[C@H](NC(=O)[C@@H](NC(=O)[C@H](CCCNC(=N)N)NC(=O)[C@@H](NC(=O)[C@H](C)NC(=O)[C@H](C)NC(=O)[C@H](CC(N)=O)NC(=O)[C@H](CO)NC(=O)[C@@H](NC(=O)[C@H](CO)NC(=O)[C@H](CCCNC(=N)N)NC(=O)[C@@H](N)CCC(N)=O)C(C)C)[C@@H](C)O)C(C)C)C(=O)N[C@@H](CCCNC(=N)N)C(=O)N[C@@H]([C@@H](C)O)C(=O)NCC(=O)N[C@@H](CCCNC(=N)N)C(=O)N[C@@H](CO)C(=O)N[C@@H](CCCNC(=N)N)C(=O)N[C@@H](Cc2c[nH]c3ccccc23)C(=O)N[C@@H](CCCNC(=N)N)C(=O)N[C@@H](CC(=O)O)C(=O)N[C@@H](C(C)C)C(=O)N1)C(=O)N[C@@H](CCCNC(=N)N)C(=O)N[C@@H](CCCNC(=N)N)C(=O)O` [Peptide G8, reference compound]: in series [1], the “E. coli DH5a MIC” value stood at 0.75 µM and the pIC50 was 6.26. Moreover, in series [2], the “B. cereus MIC” value amounted to 1.4 µM and the pIC50 was 6.05. For the same compound, in series [3], the “apoptosis of tumor cells” value is given as “cause apoptosis of tumor cells”. Also, in series [4], the “effect of salt concentration on activity” value is “lost minimal activity”. In addition, the bacterial lysing ability result in series [5] was “same bacterial lysing ability as full-length granulysin”. Also, in [6], the pIC50 is 6.05 and the “Salmonella MIC” value was found to be 1.4 µM.

`CSCC[C@H](NC(=O)[C@H](Cc1ccccc1)NC(=O)[C@H](CC(N)=O)NC(=O)[C@H](CCCNC(=N)N)NC(=O)[C@H](CO)NC(=O)[C@@H](NC(=O)[C@H](CC(=O)O)NC(=O)[C@H](CCCNC(=N)N)NC(=O)[C@H](Cc1c[nH]c2ccccc12)NC(=O)[C@H](CCCNC(=N)N)NC(=O)[C@H](CO)NC(=O)[C@H](CCCNC(=N)N)NC(=O)CNC(=O)[C@@H](NC(=O)[C@H](CCCNC(=N)N)NC(=O)[C@H](CO)NC(=O)[C@@H](NC(=O)[C@H](CCCNC(=N)N)NC(=O)[C@@H](NC(=O)[C@H](C)NC(=O)[C@H](C)NC(=O)[C@H](CC(N)=O)NC(=O)[C@H](CO)NC(=O)[C@@H](NC(=O)[C@H](CO)NC(=O)[C@H](CCCNC(=N)N)NC(=O)[C@@H](N)CCC(N)=O)C(C)C)[C@@H](C)O)C(C)C)[C@@H](C)O)C(C)C)C(=O)N[C@@H](CCCNC(=N)N)C(=O)N[C@@H](CCCNC(=N)N)C(=O)O` [Peptide G8.1]: in series [1], the “E. coli DH5a MIC” value turned out to be 0.75 µM and the pIC50 was 6.26. Further, in series [2], the “B. cereus MIC” value was found to be 2.8 µM and the pIC50 was 5.76. Besides, the “effect of salt concentration on activity” value in [4] is reported as “moderately affected by increasing concentrations of salt”. Besides, in [5], the bacterial lysing ability entry is “same bacterial lysing ability as full-length granulysin”. Besides, in series [6], the pIC50 was 5.76 and the “Salmonella MIC” value worked out at 2.8 µM.

As for `CSCC[C@@H](NC(=O)[C@@H](Cc1ccccc1)NC(=O)[C@@H](CC(N)=O)NC(=O)[C@@H](CCCNC(=N)N)NC(=O)[C@@H](CO)NC(=O)[C@H](NC(=O)[C@@H](CC(=O)O)NC(=O)[C@@H](CCCNC(=N)N)NC(=O)[C@@H](Cc1c[nH]c2ccccc12)NC(=O)[C@@H](CCCNC(=N)N)NC(=O)[C@@H](CO)NC(=O)[C@@H](CCCNC(=N)N)NC(=O)CNC(=O)[C@H](NC(=O)[C@@H](CCCNC(=N)N)NC(=O)[C@@H](CO)NC(=O)[C@H](NC(=O)[C@@H](CCCNC(=N)N)NC(=O)[C@H](NC(=O)[C@@H](C)NC(=O)[C@@H](C)NC(=O)[C@@H](CC(N)=O)NC(=O)[C@@H](CO)NC(=O)[C@H](NC(=O)[C@@H](CO)NC(=O)[C@@H](CCCNC(=N)N)NC(=O)[C@H](N)CCC(N)=O)C(C)C)[C@H](C)O)C(C)C)[C@H](C)O)C(C)C)C(=O)N[C@H](CCCNC(=N)N)C(=O)N[C@H](CCCNC(=N)N)C(=O)O` [Peptide G8.17, qrsvsnaatrvsrtgrsrwrdvsrnfmrr], the “activity in DMEM” value in series [7] was “loses all activity in DMEM”. Moreover, in series [1], the MIC is 0.75 µM (≈ 2.62 µg/mL), the “E. coli DH5a MIC” value stood at 0.7 µM and the pIC50 was 6.52. For the same compound, in series [2], the “B. cereus MIC” value is 2.8 µM and the pIC50 was 5.76. For the same compound, the “% α-helix” value in series [8] came to 40%. Besides, in series [6], the pIC50 is 6.10 and the “Salmonella MIC” value is 1.38 µM.

Turning to `CC(C)[C@H](NC(=O)[C@H](CO)NC(=O)[C@H](CCCNC(=N)N)NC(=O)[C@@H](N)CCC(N)=O)C(=O)N[C@@H](CO)C(=O)N[C@@H](CC(N)=O)C(=O)N[C@@H](C)C(=O)N[C@H](C)C(=O)N[C@H](C(=O)N[C@@H](CCCNC(=N)N)C(=O)N[C@H](C(=O)N[C@@H](CS)C(=O)N[C@@H](CCCNC(=N)N)C(=O)N[C@H](C(=O)NCC(=O)N[C@@H](CCCNC(=N)N)C(=O)N[C@@H](CO)C(=O)N[C@@H](CCCNC(=N)N)C(=O)N[C@@H](Cc1c[nH]c2ccccc12)C(=O)O)[C@@H](C)O)C(C)C)[C@@H](C)O` [Peptide G16, QRSVSNAaTRVCRTGRSRW], in [9], the “lysis of Jurkat cells” value was “Neither peptide G16 nor G17 lysed Jurkat cells in an appreciable way”.

As a reminder, the pIC50 is −log10 of the IC50, conventionally taken in molar units. Usually MIC stands for the least concentration at which growth counts as inhibited. A higher MIC goes with a less susceptible organism.
